Biological target: T1, human recombinant p38α protein kinase (Homo sapiens, UniProt Q16539)
T1 construct: purchased UBI 14-251; host or cells: E. coli
Test: Human p38α MAP kinase inhibition assay (cell-free, phosphorylation of myelin basic protein)
Assay type: biochemical
Settings: inhibition of phosphorylation of myelin basic protein by recombinant human p38α MAP kinase by 50%, Table III; read-out: IC50 p38α MAPK
Procedure: In vitro cell-free p38α MAP kinase inhibition assays were conducted by the method as described in Clerk et al., FEBS Lett., 426:93-96 (1998) for a number of lactones in formulas I/IIa/IIb. Briefly, human recombinant p38α protein kinase expressed in E. coli (UBI #14-251) was used. Myelin basic protein (MBP, UBI #13-110) was employed as substrate, and microtiter plate wells were coated with MBP (0.01 mg/ml) overnight at 4° C. Candidate compound and/or vehicle was preincubated with 0.075 μg/mL enzyme in modified HEPES buffer pH 7.4 at 25° C. for 15 minutes. The reaction was initiated by addition of 100 μM ATP and allowed to proceed for another 60 minutes. The reaction was terminated by aspirating the solution. Phosphorylated MBP was detected by incubation with a mouse monoclonal IgG2a anti-phosphoMBP antibody. Bound anti-phosphoMBP antibody was quantitated by incubation with a HRP conjugated goat anti-mouse IgG.

By UniProt entry, the sequences of proteins in these tests, tags left out.
UniProt Q16539, whole entry: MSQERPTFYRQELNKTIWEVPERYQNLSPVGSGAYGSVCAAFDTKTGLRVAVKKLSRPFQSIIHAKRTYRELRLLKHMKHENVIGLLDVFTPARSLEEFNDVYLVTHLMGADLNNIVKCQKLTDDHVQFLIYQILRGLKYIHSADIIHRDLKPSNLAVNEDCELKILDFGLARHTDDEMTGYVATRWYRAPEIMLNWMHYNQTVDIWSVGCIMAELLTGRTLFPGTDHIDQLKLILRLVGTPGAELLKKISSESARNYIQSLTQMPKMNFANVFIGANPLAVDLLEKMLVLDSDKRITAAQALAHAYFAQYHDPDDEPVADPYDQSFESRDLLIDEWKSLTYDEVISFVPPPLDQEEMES

O=C(O)C[C@H](O)C[C@H](O)CCc1c(-c2ccccc2)nn(-c2ccnc(Nc3ccccc3)n2)c1-c1ccccc1 [Example 11c, (3R,5R)-7-(3,5-diphenyl-1-(2-(phenylamino)pyrimidin-4-yl)-1H-pyrazol-4-yl)-3,5-dihydroxyheptanoic acid]
IC50: 32 µM
